Experimental findings from PubChem BioAssay AID434977 (Johns Hopkins Ion Channel Center, 2010) are described below.

The structures appear in SMILES notation. Only a part is listed here, and it is no random draw. Active and inactive are the calls of the source.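 How the source made its calls: active means calcium signal rise above buffer-control mean plus 5 SD in both duplicates, and also a hit in the primary screen; inactive means the rest.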

The experiment deals with Short transient receptor potential channel 4 (Mus musculus) (UniProt Q9QUQ5). Briefly: calcium flux activators in TRPC4/5HT1a cells, counter-screen for TRPC4 activator project, cell-based, second counter screen, HEK293 TRPC4/5HT1a, Fluo-4 (AID 434977). The conditions noted are these: Fluo-4 calcium flux, at 10 µM. On the technique in general: Calcium flux is commonly read through the fluorescence of an indicator in the cells.
Turning to `CCN(CC)CCCOC(=O)C(O)(c1ccccc1)c1ccccc1`, the outcome was inactive. For `CN(C)CCOC(=O)C(O)(c1ccccc1)C1CCCC1` (configuration not stated) the value was “inactive”.
